Amino acid sequences for entries named in this document (tags omitted). A change or cut given only in a name is not applied to a line headed by its entry.
UniProt P41145: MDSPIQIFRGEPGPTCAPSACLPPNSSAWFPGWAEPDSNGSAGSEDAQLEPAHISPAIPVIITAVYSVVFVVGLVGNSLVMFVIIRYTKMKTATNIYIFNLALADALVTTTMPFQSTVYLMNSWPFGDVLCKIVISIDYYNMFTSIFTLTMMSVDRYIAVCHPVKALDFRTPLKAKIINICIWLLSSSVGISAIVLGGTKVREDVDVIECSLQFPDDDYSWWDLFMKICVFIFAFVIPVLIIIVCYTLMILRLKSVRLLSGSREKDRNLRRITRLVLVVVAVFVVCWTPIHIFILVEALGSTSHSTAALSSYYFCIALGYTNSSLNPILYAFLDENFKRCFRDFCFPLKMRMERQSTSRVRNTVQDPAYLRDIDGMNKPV
UniProt P41143, whole entry, looked up: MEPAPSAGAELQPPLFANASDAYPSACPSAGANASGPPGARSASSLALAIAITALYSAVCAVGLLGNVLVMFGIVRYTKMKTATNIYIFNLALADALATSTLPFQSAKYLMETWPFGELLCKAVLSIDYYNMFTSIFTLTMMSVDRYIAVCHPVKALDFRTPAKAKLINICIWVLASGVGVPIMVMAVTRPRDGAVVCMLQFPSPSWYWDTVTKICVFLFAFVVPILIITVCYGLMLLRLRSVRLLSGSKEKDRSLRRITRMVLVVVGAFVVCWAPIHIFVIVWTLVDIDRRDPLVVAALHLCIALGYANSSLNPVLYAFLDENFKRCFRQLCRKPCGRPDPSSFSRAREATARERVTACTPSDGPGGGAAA
UniProt P35372, whole entry, looked up: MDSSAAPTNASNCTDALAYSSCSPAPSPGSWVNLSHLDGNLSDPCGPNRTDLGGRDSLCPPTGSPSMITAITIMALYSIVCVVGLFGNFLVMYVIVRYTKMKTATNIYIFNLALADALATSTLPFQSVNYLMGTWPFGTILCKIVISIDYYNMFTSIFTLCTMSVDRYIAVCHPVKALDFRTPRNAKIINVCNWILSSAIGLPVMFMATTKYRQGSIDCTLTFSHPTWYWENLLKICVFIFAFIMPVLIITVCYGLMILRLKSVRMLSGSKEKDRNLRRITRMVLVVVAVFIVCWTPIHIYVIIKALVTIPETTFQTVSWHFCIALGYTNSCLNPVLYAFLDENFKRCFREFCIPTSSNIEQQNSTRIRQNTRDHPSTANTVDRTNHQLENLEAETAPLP

In ChEMBL document CHEMBL1145259, “Arylacetamide kappa opioid receptor agonists with reduced cytochrome P450 2D6 inhibitory activity” (Bioorg Med Chem Lett, 2005):

Legend:
[1] = molecular target: Kappa-type opioid receptor (Homo sapiens, UniProt P41145)
[2] = molecular target: Delta-type opioid receptor (Homo sapiens, UniProt P41143); assay: Inhibitory constant against human Opioid receptor delta 1 using [3H]diprenorphine as radio ligand
Mu-type opioid receptor = Mu-type opioid receptor (Homo sapiens, UniProt P35372); assay: Inhibitory constant against human Opioid receptor mu 1 using [3H]diprenorphine as radio ligand

| SMILES | EC50 [1] | Ki [2] | Ki (Mu-type opioid receptor) |
| --- | --- | --- | --- |
| CN(C(=O)Cc1ccccc1)[C@H](CN1CCCC1)c1ccccc1 | 0.05 µM |  |  |
| CN(C(=O)Cc1ccc(Cl)c(Cl)c1)[C@H](CN1CCCC1)c1ccccc1 [ICI-199,441] | 0.0003 µM | 0.024 µM | 0.053 µM |
